EC50 data for one substance are collected here from US20260275279A1, “THYROCYTES AND USES THEREOF” (LifeNet Health, priority 2023, published 2026).

The chains behind the UniProt entries cited, without tags or fusion partners. Residues count along the entry.
UniProt P16473, 21-764: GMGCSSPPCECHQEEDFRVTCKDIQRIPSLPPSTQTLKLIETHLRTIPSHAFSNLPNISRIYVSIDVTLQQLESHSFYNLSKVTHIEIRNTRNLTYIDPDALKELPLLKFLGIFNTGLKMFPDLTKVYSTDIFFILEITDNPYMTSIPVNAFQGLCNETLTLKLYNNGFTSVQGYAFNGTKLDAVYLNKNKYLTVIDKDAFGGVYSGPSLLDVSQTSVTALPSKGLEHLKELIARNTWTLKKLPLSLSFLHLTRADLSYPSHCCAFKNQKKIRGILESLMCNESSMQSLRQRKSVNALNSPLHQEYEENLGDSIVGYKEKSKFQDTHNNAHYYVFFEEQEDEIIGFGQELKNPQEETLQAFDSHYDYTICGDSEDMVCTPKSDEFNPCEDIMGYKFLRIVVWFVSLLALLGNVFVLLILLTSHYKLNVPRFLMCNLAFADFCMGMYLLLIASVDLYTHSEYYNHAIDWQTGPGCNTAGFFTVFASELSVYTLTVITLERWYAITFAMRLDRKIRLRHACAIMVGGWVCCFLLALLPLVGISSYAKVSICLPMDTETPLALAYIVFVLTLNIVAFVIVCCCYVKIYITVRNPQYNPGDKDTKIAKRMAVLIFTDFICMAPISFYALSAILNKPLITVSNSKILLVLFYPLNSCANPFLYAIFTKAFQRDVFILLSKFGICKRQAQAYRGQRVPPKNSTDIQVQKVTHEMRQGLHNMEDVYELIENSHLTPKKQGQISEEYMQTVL

This assay deals with T1, TSHR (Homo sapiens, UniProt P16473).
T1 construct: Thyroid epithelial cells (passage 1) from healthy adult donors; endogenous in cells; host or cells: cryopreserved primary human thyrocytes (passage 1) from healthy adult donors
Nature of the assay: TG mRNA expression induced by TSHR activators in 2D primary human thyrocytes (QPCR). The note with it: 2D culture, TSHR activator for 8 days, donors n=3; read-out: half-maximal effective concentration (EC50), TG mRNA expression. The assay is classed as cell-based. The text has this:
Methods: Thyroid epithelial cells (passage 1) from healthy adult donors (males and females; ≤55 years of age; body mass index of ≤35) were cryopreserved in a serum-free biopreservation medium. Cryopreserved cells from individual donors (n=3) were thawed in human thyrocyte plating medium (HTPM) and plated in 96-well TC-treated culture plates. The thyrocytes were maintained in an h7H-based culture medium containing a TSHR activator for 8 days. Thyroglobulin (TG) mRNA and protein levels were determined using QPCR and ELISA, respectively.
Cell culture of cryopreserved thyrocytes: Thyrocytes from healthy donors were isolated as described in Example 1 and cryopreserved as in Example 2. […] The cryopreserved thyrocytes (p1) were thawed in h7H base human thyrocyte plating media (HTPM) and plated in 96-well TC-treated culture plates. Cell cultures were treated with native TSHR activators (bovine and human) or antibody-based activators (M22 IgG (+) and K1-18 IgG (+)) on day 2-8.
Assay analysis: For mRNA analysis, total RNA was isolated using Qiagen RNEasy Mini Kit (Qiagen, 74106) and quantified with NanoDrop 8000 spectrophotometer (ThermoFisher, ND-8000-GL). […]

As for “human TSH: native TSHR activator, human thyroid stimulating hormone”, the EC50 is 0.384 nM.
